# Molecular target: N6-adenosine-methyltransferase catalytic subunit (Homo sapiens, UniProt Q86U44)
# By UniProt entry, the sequences of proteins in these tests, tags left out.
# UniProt Q86U44, whole entry: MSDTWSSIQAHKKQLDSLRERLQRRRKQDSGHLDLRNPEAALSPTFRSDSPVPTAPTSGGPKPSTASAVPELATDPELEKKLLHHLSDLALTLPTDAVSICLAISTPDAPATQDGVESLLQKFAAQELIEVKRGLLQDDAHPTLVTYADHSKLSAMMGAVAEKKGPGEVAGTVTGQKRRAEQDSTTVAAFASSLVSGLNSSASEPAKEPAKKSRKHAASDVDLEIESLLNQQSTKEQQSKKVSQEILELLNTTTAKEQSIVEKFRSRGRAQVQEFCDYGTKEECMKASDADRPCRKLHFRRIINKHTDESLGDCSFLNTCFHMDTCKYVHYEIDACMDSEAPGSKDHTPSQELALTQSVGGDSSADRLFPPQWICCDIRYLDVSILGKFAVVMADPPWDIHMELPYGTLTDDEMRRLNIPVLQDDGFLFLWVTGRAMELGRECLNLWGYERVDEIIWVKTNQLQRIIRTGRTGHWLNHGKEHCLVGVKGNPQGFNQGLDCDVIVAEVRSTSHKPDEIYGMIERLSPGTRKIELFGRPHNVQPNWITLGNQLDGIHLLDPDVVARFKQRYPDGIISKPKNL
# Assay: Inhibition of METTL3 (unknown origin) assessed as remaining activity at 500 uM relative to control
row,Activity [%],SMILES
1,-3,Nc1ncnc2c1ncn2[C@@H]1O[C@H](C(=O)NCCCCN2CCCC2)[C@@H](O)[C@H]1O
2,63,Nc1ncnc2c1ncn2[C@@H]1O[C@H](CO)[C@@H](O)[C@H]1O [ADENOSINE]
